Data as given in ChEMBL document CHEMBL3758105 (J Med Chem, 2016).

Sequences of proteins named here, by UniProt entry; tags and fusion partners are left off. A change or cut given only in a name is not applied to a line headed by its entry.
UniProt P09238: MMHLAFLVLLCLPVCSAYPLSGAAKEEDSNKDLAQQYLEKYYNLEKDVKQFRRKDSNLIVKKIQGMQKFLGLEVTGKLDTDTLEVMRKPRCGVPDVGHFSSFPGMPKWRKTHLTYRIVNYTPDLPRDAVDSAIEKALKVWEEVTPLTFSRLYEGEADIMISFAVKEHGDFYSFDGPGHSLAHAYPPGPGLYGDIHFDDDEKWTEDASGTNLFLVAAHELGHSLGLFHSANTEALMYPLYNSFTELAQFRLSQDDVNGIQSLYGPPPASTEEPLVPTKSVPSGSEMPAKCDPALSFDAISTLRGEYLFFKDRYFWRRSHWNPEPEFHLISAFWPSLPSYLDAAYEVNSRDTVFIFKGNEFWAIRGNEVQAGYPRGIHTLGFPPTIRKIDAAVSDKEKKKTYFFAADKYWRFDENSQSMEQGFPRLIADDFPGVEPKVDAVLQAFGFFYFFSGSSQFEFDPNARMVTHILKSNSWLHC
UniProt P78536: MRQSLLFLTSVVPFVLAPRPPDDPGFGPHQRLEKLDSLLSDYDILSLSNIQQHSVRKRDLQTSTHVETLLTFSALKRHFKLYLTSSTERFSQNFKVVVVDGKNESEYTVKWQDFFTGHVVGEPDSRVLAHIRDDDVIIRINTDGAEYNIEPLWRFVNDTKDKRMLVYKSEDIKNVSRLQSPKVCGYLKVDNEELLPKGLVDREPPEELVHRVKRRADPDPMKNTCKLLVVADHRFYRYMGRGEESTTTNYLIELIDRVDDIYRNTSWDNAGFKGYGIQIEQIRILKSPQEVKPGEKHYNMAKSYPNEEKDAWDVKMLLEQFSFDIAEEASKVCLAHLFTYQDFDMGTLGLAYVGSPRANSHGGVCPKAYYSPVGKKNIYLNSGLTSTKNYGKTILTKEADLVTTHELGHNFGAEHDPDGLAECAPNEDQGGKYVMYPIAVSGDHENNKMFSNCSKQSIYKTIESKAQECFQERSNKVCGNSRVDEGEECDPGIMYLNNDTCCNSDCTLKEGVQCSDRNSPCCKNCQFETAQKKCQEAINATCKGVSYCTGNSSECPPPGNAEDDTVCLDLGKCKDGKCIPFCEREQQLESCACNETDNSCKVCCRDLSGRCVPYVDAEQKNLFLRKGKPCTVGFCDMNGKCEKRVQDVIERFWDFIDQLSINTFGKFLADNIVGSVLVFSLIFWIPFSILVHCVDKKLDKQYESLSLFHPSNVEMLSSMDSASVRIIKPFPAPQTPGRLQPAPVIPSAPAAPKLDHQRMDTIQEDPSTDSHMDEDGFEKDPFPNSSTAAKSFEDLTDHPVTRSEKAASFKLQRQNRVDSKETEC

Key:
[1] = biological target: Stromelysin-2 (Homo sapiens, UniProt P09238); experiment: Inhibition of recombinant human MMP10 catalytic domain using MCA-Arg-Pro-Leu-Gly-Leu-Dpa-Ala-Arg-Glu-Arg-NH2 as substrate preincubated for 60 mins followed by substrate addition by fluorescence assay
[2] = biological target: Disintegrin and metalloproteinase domain-containing protein 17 (Homo sapiens, UniProt P78536); experiment: Inhibition of TACE (unknown origin) using Mca-Pro-Leu-Ala-Gln-Ala-Val-Dpa-Arg-Ser-Ser-Ser-Arg-NH2 as substrate
[3] = biological target: T1, A disintegrin and metalloproteinase with thrombospondin motifs 5 (Homo sapiens, UniProt Q9UNA0); experiment: Inhibition of full length recombinant ADAMTS5 (unknown origin) expressed in insect Sf9 cells after 6 hrs by alkaline phosphatase-based assay
T1 sequence (Q9UNA0 whole entry): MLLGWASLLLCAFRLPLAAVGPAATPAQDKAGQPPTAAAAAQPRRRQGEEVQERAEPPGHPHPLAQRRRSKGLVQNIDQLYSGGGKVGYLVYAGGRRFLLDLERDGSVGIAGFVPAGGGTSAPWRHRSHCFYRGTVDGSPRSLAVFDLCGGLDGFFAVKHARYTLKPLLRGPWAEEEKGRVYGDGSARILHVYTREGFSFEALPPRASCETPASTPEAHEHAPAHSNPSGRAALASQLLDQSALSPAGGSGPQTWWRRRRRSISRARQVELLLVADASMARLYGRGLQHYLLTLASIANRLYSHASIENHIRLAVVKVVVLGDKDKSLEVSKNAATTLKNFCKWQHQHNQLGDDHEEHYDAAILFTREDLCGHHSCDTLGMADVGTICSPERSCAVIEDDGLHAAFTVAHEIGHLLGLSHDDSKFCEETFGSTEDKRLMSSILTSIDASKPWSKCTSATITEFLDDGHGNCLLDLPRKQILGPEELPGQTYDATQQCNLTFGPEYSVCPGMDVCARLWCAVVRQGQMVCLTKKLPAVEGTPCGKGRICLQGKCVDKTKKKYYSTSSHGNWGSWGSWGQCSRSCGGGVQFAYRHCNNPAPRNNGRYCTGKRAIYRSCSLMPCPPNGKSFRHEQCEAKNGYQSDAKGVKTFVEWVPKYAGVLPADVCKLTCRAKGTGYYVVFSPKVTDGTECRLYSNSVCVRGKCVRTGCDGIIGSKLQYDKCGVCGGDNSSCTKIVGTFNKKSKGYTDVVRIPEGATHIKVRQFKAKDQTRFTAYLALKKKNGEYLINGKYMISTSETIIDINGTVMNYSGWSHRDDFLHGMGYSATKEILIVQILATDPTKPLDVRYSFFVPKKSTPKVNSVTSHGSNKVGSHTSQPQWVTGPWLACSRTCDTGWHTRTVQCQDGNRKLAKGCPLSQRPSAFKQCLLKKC

Measured: IC50

CNC(=O)[C@@H](NC(=O)[C@H](CC(C)C)[C@H](O)C(=O)NO)C(C)(C)C
10 µM: all assays above
